Earlier results in patent US20100317733A1, “USE OF CIS-EPOXYEICOSANTRIENOIC ACIDS AND INHIBITORS OF SOLUBLE EPOXIDE HYDROLASE TO REDUCE PULMONARY INFILTRATION BY NEUTROPHILS” (THE REGENTS OF THE UNIVERSITY OF CALIFORNIA, priority 2004, published 2010).

The chains behind the UniProt entries cited, without tags or fusion partners. Where a name states a change or a piece, a line headed by the entry shows the natural chain unless it says otherwise.
UniProt P80299: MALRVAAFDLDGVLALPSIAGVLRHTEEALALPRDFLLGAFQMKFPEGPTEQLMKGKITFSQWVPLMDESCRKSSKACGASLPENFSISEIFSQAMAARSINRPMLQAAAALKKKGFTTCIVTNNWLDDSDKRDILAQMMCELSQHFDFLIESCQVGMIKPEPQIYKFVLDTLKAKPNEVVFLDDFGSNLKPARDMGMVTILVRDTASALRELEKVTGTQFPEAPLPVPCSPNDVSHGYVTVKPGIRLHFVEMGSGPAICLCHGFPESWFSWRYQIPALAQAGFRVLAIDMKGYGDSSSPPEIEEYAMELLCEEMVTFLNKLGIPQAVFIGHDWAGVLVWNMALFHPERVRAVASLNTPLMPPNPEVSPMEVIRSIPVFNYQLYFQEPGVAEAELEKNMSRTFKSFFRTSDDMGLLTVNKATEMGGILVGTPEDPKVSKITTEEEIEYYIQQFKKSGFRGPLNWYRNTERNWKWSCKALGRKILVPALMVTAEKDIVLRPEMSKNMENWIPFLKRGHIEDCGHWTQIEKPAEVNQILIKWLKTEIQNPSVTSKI

Target: sEH (Rattus norvegicus, UniProt P80299)
Conditions: injection in SH rats; cited from earlier work

Q: With `O=C(NC1CCCCC1)NC1CCCCC1` [DCU, N,N′-dicyclohexyl urea] as the molecule, how does the blood pressure read?
A: lower blood pressure

Q: And the “urinary 14,15-EET” value?
A: increase

Q: And the urinary dihydroxy derivative?
A: decrease
